Test system: Phosphodiesterase 3 (Felis catus)
Test: Inhibition of phosphodiesterase 3 enzyme activity by 50%

- IC50: 900 nM
Compound: CC(=O)Nc1ccc(C2=NNC(=O)CC2C)cc1 (stereo unspecified)
